Literature values as cited in patent publication US20060246492A1 (published 2006).

Test system: cell lines harboring activating mutations in EGFR
Details: rare cell lines with activating EGFR mutations vs most NSCLC cell lines; cell killing; cited from earlier work

COc1cc2ncnc(Nc3ccc(F)c(Cl)c3)c2cc1OCCCN1CCOCC1 [gefitinib]
enhancement in sensitivity: 50- to 100 fold
